Tested on: metastatic ccRCC
Conditions: patients with CXCL5 plasmatic levels above 0.1 ng/ml; p=0.04

## CCN(CC)CCNC(=O)c1c(C)[nH]c(/C=C2\C(=O)Nc3ccc(F)cc32)c1C [sunitinib]
  median PFS: 27 months
